Values of other authors, collected in article PMC5557574, “Selepressin, a novel selective vasopressin V1A agonist, is an effective substitute for norepinephrine in a phase IIa randomized, placebo-controlled trial in septic shock patients” (Critical Care, 2017).

Conditions: cited from earlier work

Substance: vasopressin
- Half-life (qualitative): short half-life
